The values that follow come from patent US20130089564A1.

For the experiment, the target named is rat glandular kallikrein (40 kDa protein isolated from rat submandibular gland) (rat) (UniProt P00758). Nature of the experiment: cell-based or functional assay.

The substance aprotinin (from UniProt P00974 36-93) returned an inhibition in the BAEE assay (esterase activity) of 90% and an inhibition of the enzymatic activity (BAEE assay) of 40%.
